Compounds with a hit are over-represented: about 2.1% of the library has one in this group of screens.
MITF TRPM1 HTS: activators of MITF-driven TRPM1 promoter reporter, primary screen, cell-based, SK-MEL-5, luciferase, single point; SK-MEL-5 TRPM1-promoter luciferase, 24 h; % of positive control, neutral wells = 0; activation, % at 12.5 µM; hit rate 0.75% among 300,000; AID 588334, 2011;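 active = mean activation of at least 80% with every replicate also reaching 80%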;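 also: 0% = neutral control wells and 100% = parthenolide positive control wells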
PGC1a acetyl inh: inhibitors of PGC1a acetylation signal, primary screen, cell-based, U2OS, AlphaScreen, inhibitor mode | AID 651687, 2012 | hit rate 0.17% among 350,000 | inhibition, % at 15.6 µM | AlphaScreen anti-acetyl-lysine; with virally co-expressed GCN5 acetyltransferase;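 active = every replicate shows inhibition of at least 40%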;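 also: 0% = neutral control wells and 100% = positive control wells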
miR-122 sensor: miR-122 Renilla sensor signal increase in Huh7, primary screen, miR-122 inhibitor project, cell-based, single point, plate reader | Huh7 miR-122 Renilla luciferase sensor, 48 h; neutral wells = 0, positive control = 100 | activation (reporter increase), % at 12.5 µM | hit rate 0.3% among 340,000 | AID 602342, 2012;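 active = mean replicate activation score at least 90 and every replicate individually at or above 90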;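 also: higher luciferase means less miR-122 activity so hits act as miR-122 inhibitors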
Wnt bcat act: Wnt/beta-catenin pathway activators, primary screen, cell-based, plate reader, single point; Wnt/beta-catenin reporter cell assay, activator; activation, % at 9.35 µM; hit rate 1.2% among 300,000; AID 743398, 2014; in the data active = activation above about 30%, passing the limit was not always enough;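 also: 0% = neutral control wells and 100% = positive control wells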
UUG fidelity: modulators of yeast start codon fidelity, primary screen, whole organism, S. cerevisiae, single point, plate reader | AID 602363, 2012 | S. cerevisiae UUG-firefly luciferase reporter, luminescence/redox ratio | activity score, % at 18.7 µM | hit rate 0.13% among 350,000;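 active = replicate mean at a twofold rise or more, about +100% in these data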;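 also: firefly luciferase made from a UUG start codon reports start codon fidelity; reporter light over untreated wells divided by growth signal over untreated wells; some hits fall short of that in this replicate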
MITF TRPM1 inh: inhibitors of MITF-dependent TRPM1 promoter reporter, primary screen, cell-based, SK-MEL-5, single point, luciferase. inhibition, % at 12.5 µM. hit rate 0.83% among 330,000. SK-MEL-5 TRPM1 promoter luciferase, 24 h;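 active = mean inhibition across replicates of 60% or more, whatever share of single replicates reaches that level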
* hit, by the source's call; / = no result; [ ] = remark or other dose.

(1) COc1ccc(NC(=O)Nc2ccc3c(c2)C(=O)N([C@H](C)CO)C[C@H](C)[C@H](CN(C)C(=O)Nc2ccccc2)OCCCC[C@H](C)O3)cc1
(2) COc1ccccc1-c1ccc2n(c1=O)C[C@@H]1[C@@H](CO)[C@H](C(=O)N(C)C)N(CC3CCOCC3)[C@H]21
(3) COC1C(CO)OC(n2c3c(Cl)cccc3c3c4c(c5c6cccc(Cl)c6[nH]c5c32)C(=O)NC4=O)C(O)C1O (stereo unspecified)
(4) Nc1nn(-c2ccccc2)c(N)c1N=Nc1ccccc1
(5) c1ccc(N=NC2=NN(c3ccccc3)CS2)cc1
(6) C[C@H]1CCCCO[C@H](CN(C)C(=O)Nc2ccc(F)cc2)[C@@H](C)CN([C@@H](C)CO)C(=O)c2cc(N(C)C)ccc2O1

Compound,1,2,3,4,5,6
MITF TRPM1 HTS,/,/,-86,31,/,/
PGC1a acetyl inh,-15,-12,35,-5,/,-3
miR-122 sensor,17[16.7 µM],16[16.7 µM],-9,31,/,-1[16.7 µM]
Wnt bcat act,/,/,10,26,54*,/
UUG fidelity,-5,/,/,-20,-31,/
MITF TRPM1 inh,/,/,86*,-29,/,/

Ordered by count of non-hydrogen atoms (largest number first): 3 of the compounds above.
(6) C[C@H]1CCCCO[C@H](CN(C)C(=O)Nc2ccc(F)cc2)[C@@H](C)CN([C@@H](C)CO)C(=O)c2cc(N(C)C)ccc2O1
(3) COC1C(CO)OC(n2c3c(Cl)cccc3c3c4c(c5c6cccc(Cl)c6[nH]c5c32)C(=O)NC4=O)C(O)C1O (stereo unspecified)
(5) c1ccc(N=NC2=NN(c3ccccc3)CS2)cc1

Compound,6,3,5
MITF TRPM1 HTS,/,-86,/
PGC1a acetyl inh,-3,35,/
miR-122 sensor,-1[16.7 µM],-9,/
Wnt bcat act,/,10,54*
UUG fidelity,/,/,-31
MITF TRPM1 inh,/,86*,/

Going on with the list.
(7) C[C@H](CO)N1C[C@H](C)[C@@H](CN(C)Cc2ccccc2)Oc2c(NC(=O)Nc3ccc(F)cc3)cccc2C1=O
(8) COc1cc(NC(=O)c2ccccc2-n2cnnn2)cc(OC)c1
(9) COc1cc(OC)cc(C(=O)Nc2ccc(-n3cnnn3)c(C)c2)c1
(10) COCC(=O)Nc1ccc2c(c1)C(=O)N(C)[C@H]1CC[C@@H](CC(=O)O)O[C@@H]1CO2
(11) COCC(=O)Nc1ccc2c(c1)C(=O)N(C)[C@H]1CC[C@@H](CC(=O)O)O[C@H]1CO2
(12) CN1C(=O)c2cc(NC(=O)NC3CCCC3)ccc2OC[C@H]2O[C@@H](CC(=O)O)CC[C@H]21

Compound,7,8,9,10,11,12
MITF TRPM1 HTS,/,1,108*,/,/,/
PGC1a acetyl inh,-15,/,/,1,-1,5
miR-122 sensor,34[16.7 µM],-6,/,4[16.7 µM],262*[16.7 µM],138*[16.7 µM]
Wnt bcat act,/,-3,-1,/,/,/
UUG fidelity,-9,6,/,-13,-14,3
MITF TRPM1 inh,/,-4,-95,/,/,/

(13) CCn1c(Cl)c(C=O)s/c1=N\S(=O)(=O)c1ccccc1
(14) C[C@@H]1CN([C@@H](C)CO)C(=O)c2cc(-c3ccc(C#N)cc3)cnc2O[C@H]1CN(C)C(=O)CC1CC1
(15) O=C(CN1C(=O)S/C(=C/c2ccc(N3CCOCC3)cc2)C1=O)N1CCOCC1
(16) Cc1cc(N2CCOCC2)ccc1/C=C1\SC(=O)N(C(C)C)C1=O
(17) CCN1C(=O)S/C(=C\c2ccc(N3CCOCC3)cc2C)C1=O
(18) C#CCN1C(=O)S/C(=C\c2ccc(N3CCOCC3)cc2C)C1=O

Compound,13,14,15,16,17,18
MITF TRPM1 HTS,-98,/,28,59,66,72
PGC1a acetyl inh,78*,5,2,11,-17,/
miR-122 sensor,-72,-7[16.7 µM],-1,-6,-5,/
Wnt bcat act,-22,/,9,-4,81*,56*
UUG fidelity,-4,9,-22,6,-35,/
MITF TRPM1 inh,98*,/,-35,-67,-66,-66

(19) CCC(C)N1C(=O)S/C(=C/c2ccc(N3CCOCC3)cc2C)C1=O (stereo unspecified)
(20) CN(C)C(=O)C[C@H]1CC[C@@H]2[C@H](COC[C@H](O)CN2CC2CCOCC2)O1
(21) CCCCCCCCCCCCCCCC[n+]1ccccc1
(22) CCCCCCCCCCCCCCCC[n+]1ccc(C(N)=O)cc1
(23) CCCCCCCCCCCCCCCC[n+]1ccc(/C=N/O)cc1
(24) CCCN1[C@@H]2c3ccc(-c4cccc(F)c4)c(=O)n3C[C@@H]2[C@@H](CO)[C@@H]1C(=O)N(C)C

Compound,19,20,21,22,23,24
MITF TRPM1 HTS,91*,/,-81,-22,-76,/
PGC1a acetyl inh,/,6,9,-7,/,5
miR-122 sensor,/,-2[16.7 µM],-49,-8,/,5[16.7 µM]
Wnt bcat act,1,/,-29,-26,-9,/
UUG fidelity,/,-20,-70,-19,/,/
MITF TRPM1 inh,-96,/,82*,18,78*,/

(25) COC(=O)c1sc(NC(=O)COc2ccccc2C)nc1C
(26) COc1ccccc1OCC(=O)Nc1nc(C)c(C)s1
(27) O=C(COc1ccc2ccccc2c1Br)Nc1cccnc1
(28) C#CCN(C[C@@H]1[C@@H](OC(=O)NCc2ccccc2F)[C@@H](OC(=O)NCc2ccccc2F)Cn2c(=O)ccc(=O)n21)S(=O)(=O)c1ccc(C)cc1
(29) C#CCN(C[C@@H]1[C@@H](OC(=O)NCc2ccccc2F)[C@@H](OC(=O)NCc2ccccc2F)Cn2c(=O)n(CCCCCC)c(=O)n21)S(=O)(=O)c1ccc(C)cc1
(30) O=C(C[C@@H]1CC[C@H]2[C@@H](COC[C@H](O)CN2C(=O)c2ccccn2)O1)NC1CCC1

Compound,25,26,27,28,29,30
MITF TRPM1 HTS,44,85*,114*,/,/,/
PGC1a acetyl inh,-2,6,2,60*,5,4
miR-122 sensor,/,9,0,-32,-12,1[16.7 µM]
Wnt bcat act,1,35*,20,-4,-2,/
UUG fidelity,/,-11,-6,-21,-15,/
MITF TRPM1 inh,-42,-92,-114,/,/,/

(31) Cc1ccc(-c2nnc(Nc3ccc(O)cc3)c3ccccc23)cc1S(=O)(=O)NCCO
(32) COC(=O)c1ccc(Nc2nnc(-c3ccc(C)c(S(=O)(=O)NCC4CCCO4)c3)c3ccccc23)cc1 (stereo unspecified)
(33) CCOC(=O)CNS(=O)(=O)c1cc(-c2nnc(Nc3ccc4c(c3)OCO4)c3ccccc23)ccc1C
(34) CN1C[C@H]2[C@@H](c3ccccc31)[C@H](CO)N2Cc1ccccc1F
(35) O=C(C[C@H]1CC[C@@H]2[C@H](COC[C@@H](O)CN2Cc2ccc(Cl)cc2)O1)NCc1cccc(F)c1
(36) C[C@H]1CCCCO[C@H](CN(C)C(=O)Nc2ccc(F)cc2)[C@@H](C)CN([C@@H](C)CO)C(=O)c2cc(NC(=O)C3CCCCC3)ccc2O1

Compound,31,32,33,34,35,36
MITF TRPM1 HTS,/,13,-7,/,/,/
PGC1a acetyl inh,-2,/,-168,-6,-9,-9
miR-122 sensor,49,250*,106*,39[16.7 µM],-1[16.7 µM],-6[16.7 µM]
Wnt bcat act,-1,-7,/,/,/,/
UUG fidelity,-3,-7,/,24,/,6
MITF TRPM1 inh,-1,-7,10,/,/,/

(37) Cn1c(CN2CCCC2)nc2cc(NC(=O)COc3ccc(Cl)cc3)ccc21
(38) Cc1ccc(C(C)C)c(OCC(=O)Nc2ccc3c(c2)nc(CCN2CCCCC2)n3C)c1
(39) Cn1c(CCN2CCCCC2)nc2cc(NC(=O)COc3ccc(Cl)cc3)ccc21
(40) C[C@@H]1CN([C@H](C)CO)C(=O)c2cc(Br)cnc2O[C@H]1CN(C)Cc1ccncc1
(41) COc1ccccc1NC(=O)Nc1ccc2c(c1)C(=O)N(C)C[C@@H](OC)[C@H](C)CN(C)[C@H](C)CO2
(42) O=C1C=CC(=O)N1CCCCCCCCCCN1C(=O)C=CC1=O
(43) Cc1ccc(NC(=O)/C(Cl)=C\c2ccccc2)cc1
(44) CC(=O)c1ccc(NC(=O)/C(Cl)=C/c2ccccc2)cc1
(45) O=C(Nc1ccc(F)cc1)/C(Cl)=C/c1ccccc1

Compound,37,38,39,40,41,42,43,44,45
MITF TRPM1 HTS,-6,-94,24,/,/,-90,44,138*,84*
PGC1a acetyl inh,52*,/,11,-2,-16,-6,-11,/,-4
miR-122 sensor,/,/,-1,-2[16.7 µM],/,-3,0,/,-7
Wnt bcat act,-3,-3,-13,/,/,-9,17,17,18
UUG fidelity,-3,-7,-12,-15,/,-16,-40,/,-16
MITF TRPM1 inh,10,95*,-25,/,/,91*,-41,-135,-90
